Tested on: A431 epidermoid carcinoma xenografts
Assay: Tumor growth inhibition, subcutaneous A431 xenografts
Assay type: in vivo, athymic nude mice
Procedure: Subcutaneous tumors of N87, LOVO, A431/Le^y, LS174T and L2987 were grown in athymic nude mice (Charles River, Wilmington, Mass.). Two-month-old female mice were injected with respectively 5×10^6 N87, LOVO, A431/Le^y or LS174T cells per mouse. L2987 cells were injected in male nude mice that were between 7 and 8 weeks old. To grow tumors, N87 cells had to be mixed (1:1, vol/vol) with […]® (Collaborative Biomedical Products, Belford, Mass.) prior to injection. Two perpendicular diameters of the tumor were measured by means of calipers at time intervals specified in the result section. The tumor volume was calculated according to the formula of Attia&Weiss: A^2×B×0.4. […]
Table 1 (CD33-expression on carcinoma cells in vitro) lists the cell lines used to generate xenografts in nude mice and their expression of CD33 as measured by flow cytometry. […]
As shown in Table 2 (tumor volume reduction of CD33-tumor xenografts following treatment (T) with hp67.6-AcBut-CalichDMH and expressed as a percentage of controls treated with vehicle (T/C %)), hp67.6-AcBut-CalichDMH inhibited tumor growth of human tumor xenografts with diverse histiotypic origin. […] This value is the average tumor volume of a group of mice that were treated with hp67.6-AcBut-CalichDMH (T) expressed as a percentage of the average tumor volume of a control group (C). […]

## HSA-AcPAc-CalichDMH: human serum albumin conjugated to CalichDMH with the AcPAc linker
AcPAc conjugates, intraperitoneally Q4D×3, same experiment (FIG. 4A, 4B)
  efficacy on growth of A431 xenografts: marginal
Another experiment (xenograft not named, A431 assumed), 20 days after administration of 4 μg/mouse Q4D×3
  T/C: 39%

— US20070190060A1, “Passive targeting of cytotoxic agents” (Wyeth, priority 2004, published 2007)
